Reference: patent US11384076B2, “Synthesis, pharmacology and use of new and selective FMS-like tyrosine kinase 3 (FLT3) FLT3 inhibitors” (UNIVERSITÄT REGENSBURG, priority 2017, dated 2022)

Test system: MV4-11 cells
Details: mice, gavage

For `CC(C)(C)c1cc(NC(=O)Nc2ccc3oc(C(=O)c4cc5cc(OC(=O)N6CCC(N7CCCCC7)CC6)ccc5[nH]4)cc3c2)no1.Cl` [Marbotinib-Carbamat], the “highest dose that can be dosed” value was “up to 75 mg/kg”.
